Values quoted from earlier work, collected in US20070280970A1, “Methods of Treating Wounds With Gonyautoxins” (published 2007).
Where two headings read alike, the source gives them in different places.

Tested on: chronic anal fissure
Details: for Complications / Healing rate at 3 months (%) / Recurrence (%): ointment
[1] = 25 patients, N Eng J Med 1999, 341: 65-9
[2] = 26 patients, Dis Colon Rectum 2002, 46: 805-8

Structure (SMILES) | Side effects (topical application) | Side effects of treatment (chronic anal fissure) | Change in MVCP (long term treatment (over three months)) | Complications [1] | Healing rate at 3 months (%) [1] [%] | Recurrence (%) [1] [%] | Complications [2] | Healing rate at 3 months (%) [2] [%] | Recurrence (%) [2] [%] | Relapse occurrence (treated anal fissure patients) [%]
COC(=O)C1=C(C)NC(C)=C(C(=O)OC)C1c1ccccc1[N+](=O)[O-] | does not produce any significant side effects | – | – | – | – | – | – | – | – | –
O=[N+]([O-])OCC(CO[N+](=O)[O-])O[N+](=O)[O-] | – | moderate to severe headaches | without a significant change | Headaches | 60 | 12 | Moderate | 36 | 31 | 31
